Tests used:
[1] = target: human TSH receptor on CHO cells (CHO-hTSHR clone JP09) (human) (UniProt P16473); assay: cell-based or functional assay
[2] = target: porcine TSH receptor (solubilized porcine thyroid membranes) (porcine) (UniProt Q8SPP9); assay: competitive displacement of 125I-bTSH from solubilized porcine thyroid membranes

cAMP stimulation in JP09 cells, EC50 [1]: 0.71 ng/mL
cAMP stimulation in JP09 cells, relative potency (WT=1) [1]: 9.4 fold (WT=1)
EC25 of inhibition of 125I-bTSH binding [2]: 7.9 ng/mL
Substance: bovine thyroid stimulating hormone (bTSH) (from UniProt P01217 25-120; P01223 21-132) (ligand)
